# PubChem BioAssay (NCI)
#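 Dose response: 5 concentrations. Exposure: 48 h. Format: 96-well plates. Endpoint: linear interpolation; highest concentration if not reached. TGI: concentration producing complete growth inhibition.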
# Tests used:
# Assay in all cases: DTP human tumour cell line panel, 48 h
# HOP-62 NSCLC = tested on: HOP-62 NSCLC
# DU-145 prostate = tested on: DU-145 prostate
# ACHN renal = tested on: ACHN renal
# MALME-3M melanoma = tested on: MALME-3M melanoma
# SK-OV-3 ovarian = tested on: SK-OV-3 ovarian
# NCI-H322M lung = tested on: NCI-H322M lung
# MOLT-4 leukemia = tested on: MOLT-4 leukemia
# MCF7 breast = tested on: MCF7 breast
# PC-3 prostate = tested on: PC-3 prostate
# A549 NSCLC = tested on: A549 NSCLC
# RXF 393 renal = tested on: RXF 393 renal
# CCRF-CEM leukemia = tested on: CCRF-CEM leukemia
# SNB-75 CNS = tested on: SNB-75 CNS
# SF-295 CNS = tested on: SF-295 CNS
# MDA-MB-435 = tested on: MDA-MB-435
# OVCAR-5 ovarian = tested on: OVCAR-5 ovarian
# UACC-257 melanoma = tested on: UACC-257 melanoma
# COLO 205 colon = tested on: COLO 205 colon
# MDA-MB-231 breast = tested on: MDA-MB-231 breast
# MDA-N = tested on: MDA-N
# HCT-116 colon = tested on: HCT-116 colon
# SN12C renal = tested on: SN12C renal
# SK-MEL-5 melanoma = tested on: SK-MEL-5 melanoma
# BT-549 breast = tested on: BT-549 breast
# UO-31 renal = tested on: UO-31 renal
# OVCAR-3 ovarian = tested on: OVCAR-3 ovarian
# TK-10 renal = tested on: TK-10 renal
# A498 renal = tested on: A498 renal
# SF-539 CNS = tested on: SF-539 CNS
# SW-620 colon = tested on: SW-620 colon
# NCI/ADR-RES ovarian = tested on: NCI/ADR-RES ovarian
# HL-60(TB) leukemia = tested on: HL-60(TB) leukemia
# OVCAR-8 ovarian = tested on: OVCAR-8 ovarian
# NCI-H23 lung = tested on: NCI-H23 lung
# 786-0 renal = tested on: 786-0 renal
# HCT-15 colon = tested on: HCT-15 colon
# OVCAR-4 ovarian = tested on: OVCAR-4 ovarian
# CAKI-1 renal = tested on: CAKI-1 renal
# RPMI-8226 leukemia = tested on: RPMI-8226 leukemia
# HS 578T breast = tested on: HS 578T breast
# T-47D breast = tested on: T-47D breast
# HOP-92 NSCLC = tested on: HOP-92 NSCLC
# SF-268 CNS = tested on: SF-268 CNS
# HT29 colon = tested on: HT29 colon
# IGROV1 ovarian = tested on: IGROV1 ovarian
# KM12 colon = tested on: KM12 colon
# NCI-H460 lung = tested on: NCI-H460 lung
# UACC-62 melanoma = tested on: UACC-62 melanoma
# K-562 leukemia = tested on: K-562 leukemia
# EKVX NSCLC = tested on: EKVX NSCLC
# U251 CNS = tested on: U251 CNS
# HCC-2998 colon = tested on: HCC-2998 colon
# SR leukemia = tested on: SR leukemia
# SNB-19 CNS = tested on: SNB-19 CNS
# LOX IMVI melanoma = tested on: LOX IMVI melanoma
# NCI-H226 lung = tested on: NCI-H226 lung
# M14 melanoma = tested on: M14 melanoma
# NCI-H522 lung = tested on: NCI-H522 lung
# SK-MEL-2 melanoma = tested on: SK-MEL-2 melanoma
smiles,measurement,setting,value
CN(C(=O)COc1cc(Cl)c(Cl)cc1Cl)[C@@H]1CCCC[C@@H]1N1CCCC1,TGI,HOP-62 NSCLC,> 100 µM
same,TGI,DU-145 prostate,> 100 µM
same,TGI,ACHN renal,> 100 µM
same,TGI,MALME-3M melanoma,> 100 µM
same,TGI,SK-OV-3 ovarian,> 100 µM
same,TGI,NCI-H322M lung,> 100 µM
same,TGI,MOLT-4 leukemia,> 100 µM
same,TGI,MCF7 breast,92 µM
same,TGI,PC-3 prostate,> 100 µM
same,TGI,A549 NSCLC,> 100 µM
same,TGI,RXF 393 renal,> 100 µM
same,TGI,CCRF-CEM leukemia,> 100 µM
same,TGI,SNB-75 CNS,> 100 µM
same,TGI,SF-295 CNS,63.6 µM
same,TGI,MDA-MB-435,> 100 µM
same,TGI,OVCAR-5 ovarian,> 100 µM
same,TGI,UACC-257 melanoma,55.2 µM
same,TGI,COLO 205 colon,50 µM
same,TGI,MDA-MB-231 breast,> 100 µM
same,TGI,MDA-N,> 100 µM
same,TGI,HCT-116 colon,> 100 µM
same,TGI,SN12C renal,> 100 µM
same,TGI,SK-MEL-5 melanoma,31.2 µM
same,TGI,BT-549 breast,> 100 µM
same,TGI,UO-31 renal,> 100 µM
same,TGI,OVCAR-3 ovarian,> 100 µM
same,TGI,TK-10 renal,> 100 µM
same,TGI,A498 renal,39.2 µM
same,TGI,SF-539 CNS,> 100 µM
same,TGI,SW-620 colon,> 100 µM
same,TGI,NCI/ADR-RES ovarian,> 100 µM
same,TGI,HL-60(TB) leukemia,> 100 µM
same,TGI,OVCAR-8 ovarian,> 100 µM
same,TGI,NCI-H23 lung,> 100 µM
same,TGI,786-0 renal,> 100 µM
same,TGI,HCT-15 colon,> 100 µM
same,TGI,OVCAR-4 ovarian,> 100 µM
same,TGI,CAKI-1 renal,> 100 µM
same,TGI,RPMI-8226 leukemia,> 100 µM
same,TGI,HS 578T breast,> 100 µM
same,TGI,T-47D breast,> 100 µM
same,TGI,HOP-92 NSCLC,> 100 µM
same,TGI,SF-268 CNS,> 100 µM
same,TGI,HT29 colon,> 100 µM
same,TGI,IGROV1 ovarian,> 100 µM
same,TGI,KM12 colon,> 100 µM
same,TGI,NCI-H460 lung,> 100 µM
same,TGI,UACC-62 melanoma,62.3 µM
same,TGI,K-562 leukemia,> 100 µM
same,TGI,EKVX NSCLC,> 100 µM
same,TGI,U251 CNS,> 100 µM
same,TGI,HCC-2998 colon,56.5 µM
same,TGI,SR leukemia,> 100 µM
same,TGI,SNB-19 CNS,> 100 µM
same,TGI,LOX IMVI melanoma,> 100 µM
same,TGI,NCI-H226 lung,> 100 µM
same,TGI,M14 melanoma,31.9 µM
same,TGI,NCI-H522 lung,74.5 µM
same,TGI,SK-MEL-2 melanoma,45 µM
